Data reported in paper PMC12796744.

Biological target: nucleosome containing the histone variant H2A.Z (UniProt P0C0S5)
Assay: multiplex bead-based nucleosome binding assay (Luminex xMAP); biotinylated mononucleosomes on spectrally distinct streptavidin MagPlex beads, pooled panel; 0 to 5 nM GST-tagged HMGN protein in solution; 50 mM NaCl, 25 mM Hepes pH 7.5, 1 mM DTT, 0.5% BSA, 0.1% Tween-20; room temperature, 2 h; detected with anti-GST and phycoerythrin secondary antibody; relative binding taken at 0.625 nM protein

fold binding over the canonical nucleosome: 2 fold
Substance: GST-HMGN2 (from UniProt P05204 1-90) (natural protein)
